Test results as given in patent US12090225B2 (Avalyn Pharma Inc., priority 2018, dated 2024).

Test: Pattern stability screen of potential salts (40° C./75% RH, XRPD)
Assay type: physicochemical
Conditions: Initial pattern 1

## Tartrate
  XRPD pattern after 72 hrs 40° C./75% RH: 1
